Experimental data reported in patent US5229109A, “Low toxicity interleukin-2 analogues for use in immunotherapy” (priority 1992, dated 1993).

Experiments:
[1] = system: renal cell carcinoma / cancer patients; conditions: cited from earlier work
Daudi targets = assay: LAK generation, 4 hour 51Cr release cytotoxicity assay; format: cell-based, human; conditions: 100:1 effector:target ratio; 0.5 nM native IL-2 or 1 nM mutants
Experimental: The abilities of optimal concentrations of IL-2 and the analogues to stimulate peripheral blood mononuclear cells to generate lymphokine activated killing (LAK) in vitro were next compared.
Fresh peripheral blood mononuclear cells (PBMC) obtained from leukopharesis of normal human donors were isolated over a Ficoll-Hypaque gradient. […] Non-adherent cells were tested for cytotoxicity against Daudi targets by a 4 hour ^51 Cr release assay, with specific lysis being presented as the mean of triplicate values. Cell-free supernatants from 3 day PBMC cultures were analyzed by ELISA for cytokine content.

[2] = system: IL-2 receptor p55 on PBMC; assay: FACS analysis of p55 expression on cultured PBMC; format: cell-based, human; conditions: cultures stimulated for 72 hours
Experimental: Cultured PBMC were washed with PBS, 1% bovine serum albumin (BSA), and 0.1% sodium azide. To approximately one million cells, FITC-labelled monoclonal antibody against IL-2 receptor p55 or a non-specific control mouse IgG (Becton-Dickinson) was added. Following incubation for 30 minutes, the cells were washed twice using a Sorvall cell washer 2L, then fixed in PBS and 1% paraformaldehyde. The cells were then analyzed on Becton-Dickinson FACScan and results were presented as per cent of gated cells positive for p55 after subtraction of non-specific background fluorescence.

## native IL-2: native recombinant human interleukin 2, comparator cytokine
[1]; humans
  tolerated fraction of the optimal dose derived from animal studies: ≤ 10%
[1]; optimal tolerable dosage
  renal cancer patients exhibiting signs of tumor regression: around 20%
Daudi targets
  % maximal specific lysis: 62%
[2]
  percentage of cells expressing p55 doubled: nor
